Test results as given in patent publication US7375215B2, “Compounds for PDT” (Bioscience Technology Investment Holdings Limited, priority 2000, dated 2008).

Experiment: Plasma and tissue photosensitiser concentrations in tumour-bearing mice
Protocol: Adult female Balb/c mice bearing the syngeneic colo26 tumour implanted subcutaneously were produced using methods previously described (Ansell et al. Lasers in Medical Science 1997, 12, 336-41). Groups of mice of weight 19-22 g were given the photosensitisers at a dose of 0.88 μmol kg^−1 (equivalent to 0.6 mg kg^−1 in the case of m-THPC) by injection into the tail vein. The solutions for injection of each compound were prepared at a concentration of 0.352 μmol ml^−1 so that a typical 20 g mouse would be injected with a volume of 50 μl.
Animals were sacrificed at 6, 24, 72 and 192 hours after injection of each photosensitiser. Immediately after sacrifice, blood was obtained by cardiac puncture, and centrifuged at 13,000×g for three minutes. […] The photosensitiser content of each sample was measured from the fluorescence of an extract obtained using methanol:DMSO (3:5, v:v). A 50 μl portion of each extract was transferred to a disposable fluorescence cuvette and the fluorescence determined using an excitation wavelength of 418 nm and emission wavelength of 650 nm with an eight second response setting. […] The measurement protocol was designed to dilute each sample to a sufficient extent to avoid interference by endogenous chromophores (absorbance of samples <<0.1 at the excitation wavelength).
The selectivity for tumour specific tissue distribution was also evaluated in this work. […]

Q: For “tetrakis (6′-(methoxy PEG 2000 carbamate)1′-isocyanate hexamethylene) derivative of 7,8dihydro-5,10,15,20-tetrakis(3-hydroxyphenyl)porphyrin [SPC 0172]”, which “Tumour:muscle ratio, fold higher than that observed with m-THPC” value (72 hours post-administration) is on record?
A: Its value is 2-3 fold.

Q: What about the “Excretion from the liver” value (compared with m-THPC) of the same substance?
A: Its value is “in a comparable period to m-THPC”.
